scFv variants of Ab-14 (light chain) against a SARS-CoV-2 spike peptide

Data: MIT Lincoln Laboratory AlphaSeq set, Li et al. 2023, doi:10.1038/s41467-023-39022-2, as distributed in FLAb.

Target peptide (SARS-CoV-2 spike, HR2 region): PDVDLGDISGINAS

Parent scFv Ab-14: VH joined to VL by a 15-residue (Gly4Ser)3 linker. Changes lie in the light chain CDRs alone.
VH: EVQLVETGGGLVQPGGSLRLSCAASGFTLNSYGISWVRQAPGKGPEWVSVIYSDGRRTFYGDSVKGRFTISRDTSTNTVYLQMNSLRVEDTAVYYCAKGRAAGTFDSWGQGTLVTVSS
VL: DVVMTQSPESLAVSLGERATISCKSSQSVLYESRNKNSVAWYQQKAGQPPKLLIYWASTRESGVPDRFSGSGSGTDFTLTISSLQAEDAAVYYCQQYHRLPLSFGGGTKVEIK

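Phage display of a naive human antibody library on the peptide gave the parent. Designed CDR sequences, proposed from the first random library and measured here. Several design methods are mixed in this list. AlphaSeq pools MATa yeast showing the antibodies with MATalpha yeast showing the peptide. After mating in shaken culture at 30 °C for 16 h, diploids were selected and their barcode pairs sequenced. A regression on co-assayed BCL2-family reference pairs converts the normalised counts of each replicate to an apparent Kd. There are six technical replicates.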

Each variant is given by its three light chain CDRs, as the data file delimits them; those of the parent are KSSQSVLYESRNKNSVA, WASTRES, QQYHRLPLS. This list holds designs with more than six substitutions. Each Kd is an estimate from the mating assay, the geometric mean of the replicates in which the pair was seen; lower is stronger. A pair that was not seen in any replicate is written "no signal"; this usually means weak binding, but a binder can also be missed. Nonspecific signal, from three strains lacking the peptide, appeared in 4% of pairings of all light chain designs, centred on 430 nM (5% of these signals below 38 nM); values are not corrected for it. The range of this assay differs from that of the first round, and the authors advise against merging the two. The authors' rule: three or more of the six replicates give a measured affinity, fewer mean a poor binder.

CDR-L1,CDR-L2,CDR-L3,apparent Kd,replicates with signal
KLSQSMLYEERNKNNVA,SASHREW,QQYHRLPLS,430 pM,6/6
KVSPSQLYWSRNFNAVA,QASTRET,QQYHRLPLS,6.5 nM,6/6
KFEGSEGMESRNKNSVA,EASHRMS,QQYHRLPLS,970 pM,6/6
KIGMTLNQLYQKANNVA,DLVEREN,QQYHRLPLS,4.9 nM,6/6
IVSQLMIWGMHAKNSIA,EANTRIN,QQYDRLPLF,no signal,0/6
SMAYFQGGYNQQEKAIA,ESATRTQ,QQYFRLPLT,no signal,0/6
KISESMHFAQFNKQSIA,EVSVRSN,QSYNRLPLS,170 nM,4/6
KITATMRFEQKESNNIA,EVTTRSK,QQYYRLPLA,14 nM,5/6
KFSQMVNTMSVSKSAVA,EMSTRPE,QQYNRLPLA,5.2 nM,6/6
SMSNLGMVPSVWENSIA,DTEIVEE,QQYSRLPLL,5.4 nM,6/6
KQQQEWDGQSRNKNSVA,HASKRES,QQYHRLPLS,9.8 nM,6/6
KLSGIMRVESKQTSAIA,EVNERSE,QQYDRLPLS,10 nM,6/6
MMSQVTGQGMRHRNNVA,QTSTREP,QQYDRLPLI,5.9 nM,6/6
MISDLTMYGSRNKNSVA,DLSNRGS,QQYHRLPLS,2.1 nM,6/6
AEDHQEGSGQNSDANVA,QAEQRAP,QQYHHLPLM,16 nM,6/6
TISTSAQQESHNKNSVA,DLNVRGS,QQYDRLPLS,6.3 nM,6/6
IISQVDAYESRNKQSIA,DQSTRGS,QQYDRLPLS,3.7 nM,6/6
HISQMVMYGSCNKNNVA,QVELREE,QQYHRLPLS,21 nM,5/6
MISQLMNMGQFAINSVA,QANIRNS,QQYDRLPLM,no signal,0/6
TLSQMSGLEAVKHNSVA,ENSTREN,QQYDRLPLA,910 nM,4/6
ALSMSELMESRNWNSVA,HANTREE,QQYHRLPLS,640 pM,6/6
TISTLMRYESTLKNAIA,NAQTRES,QQYHRLPIS,4.0 nM,6/6
MVTQMAMSGMTNKRSVA,NAETRCN,QQYHRLPLI,340 nM,2/6
QIDSFYQHGTDDKQAMA,DVSVRDQ,QQYSRLPLS,1.9 nM,6/6
MMSMGYLGGMRAKNNVA,QEETREK,QQYHHLPLI,14 nM,6/6
RIQEQYQWPDNAGQNVA,EIQTAID,QQYAHLPLS,11 nM,6/6
MLTRFNLENQGVSNNIA,DTNNVQE,QQYFRLPFA,3.2 nM,6/6
KISQMVRVGSTHSNSIA,EEATRAD,QQYHRLPLS,1.3 nM,6/6
MISESVMYESRNRNSVA,DHSTRED,QCYDRLPLS,22 nM,6/6
MVSQLMLWGMHVKNSIA,EAQTRLN,QQYDRLPLI,no signal,0/6
KISQMVRVGTTHGNSIA,EEATRAK,QQYHRLPLF,10 nM,6/6
MIQDNYAGNTDSGNSIA,AEATWMD,QQYSRLPLA,26 nM,5/6
KIRVNHLMFSQNESNIA,GMSVRSR,QQYYHLPLT,33 nM,6/6
NISESMYFQSRNKNNIA,EMSTRER,QHYHRLPLS,2.2 nM,6/6
SMRAVGCDMQRNHSAIA,DATQIED,QQYVMLPLS,41 nM,6/6
SISMSMAFLSRNKNSVA,ENSTREE,QQYHRLPLL,9.3 nM,6/6
KVSQSQCYEDRNKNNVA,NASDRMS,QQYHRLPLS,720 pM,6/6
TLYGLSMSMSKNKNNVA,EMTTREK,QQYDRLPLV,3.5 nM,6/6
HINEVDHGVKNKYNNIA,DISELAI,QQYFQLPIS,6.4 nM,6/6
IFSQSVLMGNMTKNSVA,QASTRFN,QQYHRLPLI,58 nM,6/6
QITQLVGYGQRNKNSVA,QMETREN,QQYDRLPLS,5.9 nM,6/6
NLGGLDFNSTYGMKAVA,DVSEVGE,QHYSRLPLS,63 nM,6/6
KLRQVTEIESFNKNSVA,QTETREN,QDYDRLPLS,no signal,0/6
TISMVMNHMTKNKNNVA,NMDMRED,QQYDRLPLS,4.5 nM,6/6
MISQLMNMGTFAINSVA,QATIRNS,QQYDRLPLT,81 nM,6/6
SLEPFEQQIMKDLNNIA,NTQVRAN,QQYMRLPFM,780 pM,6/6
MLTNETDGNYGRANSVA,NAEELMT,QAYFRLPIT,8.5 nM,6/6
SVQVYTENFMERGQNIA,DVSAKTV,QQYHRLPLA,2.9 nM,6/6
KSSCSVDQEDRNSNSVA,NASTREL,QQYHRLPLS,2.7 nM,6/6
QISQMMNLSMHQVNNVA,QMTTREK,QQYDRLPLS,12 nM,6/6
MLTMFNLENQGRSNNIA,DTNNVQE,QQYSRLPFA,1.5 nM,6/6
HMSALTLQGMRMRNSVA,QMTTREN,QQYDHLPLS,13 nM,6/6
KLLQVTGYESYVRNSVA,QMSTRAE,QDYHRLPLS,4.6 nM,6/6
KSMQEDEYQSRNKNSVA,HASLRES,QQYHRLPLS,31 nM,5/6
NFGQKMALITGQRQQIA,DSTVRED,QQYSRLPLT,1.4 nM,6/6
MISQVLNTLTRTGNNVA,DLAERED,QQYFRLPLS,1.1 nM,6/6
HMQNEWQGGSRAENNVA,EGTVVCD,QQYATLPLQ,6.5 nM,5/6
KLNDTFQQYERNNSSVA,DAIISEQ,QQYARLPLI,3.5 nM,6/6
KLYQSVAMTSANKNNVA,DLNERER,QQYHRLPLS,730 pM,6/6
KLYDDATSRVQDAENIA,EKTESLQ,QQYHRLPLS,41 nM,5/6

4 of these entries, quoted again:

CDR-L1,CDR-L2,CDR-L3,apparent Kd,replicates with signal
MLTRFNLENQGVSNNIA,DTNNVQE,QQYFRLPFA,3.2 nM,6/6
TISTSAQQESHNKNSVA,DLNVRGS,QQYDRLPLS,6.3 nM,6/6
NLGGLDFNSTYGMKAVA,DVSEVGE,QHYSRLPLS,63 nM,6/6
KSMQEDEYQSRNKNSVA,HASLRES,QQYHRLPLS,31 nM,5/6